As a reminder, the IC50 is the point on the concentration scale where inhibition reaches its midpoint.

Sequences of proteins named here, by UniProt entry; tags and fusion partners are left off. A change or cut given only in a name is not applied to a line headed by its entry.
UniProt P23458: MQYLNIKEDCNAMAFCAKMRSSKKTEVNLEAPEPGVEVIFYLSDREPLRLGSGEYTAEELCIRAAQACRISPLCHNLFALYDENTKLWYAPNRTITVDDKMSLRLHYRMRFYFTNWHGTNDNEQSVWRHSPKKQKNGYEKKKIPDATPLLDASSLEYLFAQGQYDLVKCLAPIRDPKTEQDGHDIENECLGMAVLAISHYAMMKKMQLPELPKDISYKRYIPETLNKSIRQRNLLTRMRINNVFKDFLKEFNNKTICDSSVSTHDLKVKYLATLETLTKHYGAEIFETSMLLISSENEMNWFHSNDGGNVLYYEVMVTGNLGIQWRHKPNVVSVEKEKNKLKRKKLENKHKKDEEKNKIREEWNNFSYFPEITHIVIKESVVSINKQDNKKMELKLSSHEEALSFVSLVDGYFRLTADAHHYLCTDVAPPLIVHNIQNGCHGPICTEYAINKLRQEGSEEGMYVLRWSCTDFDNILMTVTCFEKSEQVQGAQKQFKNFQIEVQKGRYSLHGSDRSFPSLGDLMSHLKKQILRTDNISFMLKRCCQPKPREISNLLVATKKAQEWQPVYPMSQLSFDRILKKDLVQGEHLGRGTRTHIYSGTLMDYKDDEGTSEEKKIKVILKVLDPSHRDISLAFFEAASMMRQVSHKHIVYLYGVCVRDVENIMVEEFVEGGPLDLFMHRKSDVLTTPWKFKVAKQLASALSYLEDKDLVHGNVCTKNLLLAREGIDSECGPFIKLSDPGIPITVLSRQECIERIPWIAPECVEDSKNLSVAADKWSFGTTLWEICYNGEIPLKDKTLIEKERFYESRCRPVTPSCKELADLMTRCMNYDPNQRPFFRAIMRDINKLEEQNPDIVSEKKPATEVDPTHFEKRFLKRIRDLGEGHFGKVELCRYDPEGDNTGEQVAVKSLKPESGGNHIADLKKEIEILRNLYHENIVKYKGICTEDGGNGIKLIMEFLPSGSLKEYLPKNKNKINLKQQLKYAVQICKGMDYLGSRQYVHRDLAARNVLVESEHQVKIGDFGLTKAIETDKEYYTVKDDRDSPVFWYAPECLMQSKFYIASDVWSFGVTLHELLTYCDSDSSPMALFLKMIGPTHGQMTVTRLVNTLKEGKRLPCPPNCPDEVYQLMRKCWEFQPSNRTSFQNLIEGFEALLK

The target in assay [1] is T1, Tyrosine-protein kinase JAK1 (Homo sapiens, UniProt P23458). As to the kind of experiment: Inhibition of human recombinant JAK1.
Assay [2] has as its target T1, Tyrosine-protein kinase JAK1. As to the kind of experiment: Inhibition of JAK1 in human whole blood assessed as inhibition of IL-6-induced pSTAT1.

As for `O=C(Nc1nc2cccc(-c3ccc(CN4CCOCC4)cc3)n2n1)C1CC1`, the IC50 in assay [1] was 92 nM; in assay [2], 5590 nM.

Source of the values: ChEMBL document CHEMBL3351789, “Triazolopyridines as selective JAK1 inhibitors: from hit identification to GLPG0634” (J Med Chem, 2014).
